Source: patent US9873680B2 (Gilead Sciences, Inc., priority 2014, dated 2018)

Assay: Test B: Cytotoxicity Assay
Type: cell-based
Conditions: human, uninfected MT-4 cells, CellTiter-Glo
Procedure: Test B: Cytotoxicity Assay Compound cytotoxicity and the corresponding CC50 values was determined using the same protocol as described in the antiviral assay (Test A) except that uninfected cells were used.

## Cn1nc(NS(C)(=O)=O)c2c(Cl)ccc(-c3ccc(C#CC4(O)CC(F)(F)C4)nc3[C@H](Cc3cc(F)cc(F)c3)NC(=O)Cn3nc(C(F)F)c4c3C(F)(F)[C@@H]3C[C@H]43)c21 [Compound 95E, N—((S)-1-(3-(4-chloro-1-methyl-3-(methylsulfonamido)-1H-indazol-7-yl)-6-((3,3-difluoro-1-hydroxycyclobutyl)ethynyl)pyridin-2-yl)-2-(3,5-difluorophenyl)ethyl)-2-((3bS,4aR)-3-(difluoromethyl)-5,5-difluoro-3b,4,4a,5-tetrahydro-1H-cyclopropa[3,4]cyclopenta[1,2-c]pyrazol-1-yl)acetamide]
  CC50 at 5 days: 8.75 µM
